Data reported in patent publication US10662156B2, “Guanidine derivative and medical use thereof” (Toray Industries, Inc., priority 2016, dated 2020).

Sequences of proteins named here, by UniProt entry; tags and fusion partners are left off.
UniProt Q9UDY8, whole entry: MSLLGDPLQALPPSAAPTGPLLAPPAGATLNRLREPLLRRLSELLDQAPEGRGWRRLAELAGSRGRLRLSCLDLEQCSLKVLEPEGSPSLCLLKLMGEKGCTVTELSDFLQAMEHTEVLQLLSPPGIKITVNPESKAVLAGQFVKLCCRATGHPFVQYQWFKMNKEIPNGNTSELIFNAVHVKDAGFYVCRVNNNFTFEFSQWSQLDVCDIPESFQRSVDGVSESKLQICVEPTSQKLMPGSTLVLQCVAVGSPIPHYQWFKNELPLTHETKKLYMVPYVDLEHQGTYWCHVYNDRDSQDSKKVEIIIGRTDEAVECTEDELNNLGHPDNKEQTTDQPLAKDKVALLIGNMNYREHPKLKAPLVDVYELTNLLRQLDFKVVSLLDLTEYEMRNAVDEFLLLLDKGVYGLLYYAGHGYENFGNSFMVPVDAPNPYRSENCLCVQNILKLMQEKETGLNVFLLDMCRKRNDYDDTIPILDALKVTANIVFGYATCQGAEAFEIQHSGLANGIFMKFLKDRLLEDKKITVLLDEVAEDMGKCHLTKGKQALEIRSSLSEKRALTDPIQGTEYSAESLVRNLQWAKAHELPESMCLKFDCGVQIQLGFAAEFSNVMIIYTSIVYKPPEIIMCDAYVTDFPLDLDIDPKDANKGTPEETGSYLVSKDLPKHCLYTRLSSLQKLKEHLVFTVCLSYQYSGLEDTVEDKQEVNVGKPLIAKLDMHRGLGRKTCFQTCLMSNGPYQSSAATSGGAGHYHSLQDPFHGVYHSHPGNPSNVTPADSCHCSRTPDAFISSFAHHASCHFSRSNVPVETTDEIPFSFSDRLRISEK

Target: recombinant GST fusion MALT1 (human MALT1) (Homo sapiens (Human), UniProt Q9UDY8)
Test: Evaluation of inhibition of protease activity of MALT1 (cleavage of fluorescent peptide substrate Ac-LRSR-AMC)
Details: substrate Ac-LRSR-AMC 20 μmol/L, 30° C. for 80 minutes
Procedure: The guanidine derivative (I) or the pharmacologically acceptable salt thereof was evaluated for its inhibition of the protease activity of MALT1 in an in vitro experimental system in accordance with the method described in the literature (Cancer Cell, 2012, Vol. 22, p. 825-837). Specifically, the evaluation was conducted by measuring the degree of reduction in fluorescence value by the compound relative to elevation in fluorescence value resulting from the cleavage of a fluorescently labeled artificial peptide substrate by recombinant MALT1.
A) Preparation of Recombinant GST Fusion MALT1:
Full-length cDNA of human MALT1 gene (GenBank accession No: AB026118.1) amplified by PCR was inserted in flame to a SalI site located downstream of GST gene in a pGEX6P3 vector (GE Healthcare Japan Corp.) to prepare a vector (hereinafter, referred to as a pGEX6P3-MALT1 vector). Subsequently, E. coli for protein expression (BL21-RIL-codon plus-DE3, Agilent Technologies, Inc.) was transformed with the pGEX6P3-MALT1 vector and then analyzed by ampicillin resistance screening and colony PCR to obtain an E. coli strain expressing recombinant GST fusion MALT1. […]
The fluorescence value of the first measurement was defined as “F1”, and the fluorescence value of the second measurement was defined as “F2”. […]

Row | SMILES | pIC50
1 | NC(=NC(=O)c1ccccc1)NCc1cc(-c2ccc(Cl)cc2)c(-c2ccc(Cl)cc2)cn1 | 6.76
2 | NC(=NS(=O)(=O)c1ccccc1)NCc1cc(-c2ccc(Cl)cc2)c(-c2ccc(Cl)cc2)cn1 | 6.72

pIC50: −log10 of the molar value.
